ChEMBL document CHEMBL5143545, “Indolylarylsulfones bearing phenylboronic acid and phenylboronate ester functionalities as potent HIV‑1 non-nucleoside reverse transcriptase inhibitors” (Bioorg Med Chem, 2022)

Target: Human immunodeficiency virus type 1 reverse transcriptase (Human immunodeficiency virus 1, UniProt Q72547)
Assay: Inhibition of HIV1 reverse transcriptase assessed as inhibition of biotin-dUTP incorporation

Q: With `Cc1cc(C#N)cc(C)c1Oc1nc(Nc2ccc(C#N)cc2)nc(N)c1Br` [ETRAVIRINE] as the compound, how does the IC50 read?
A: The IC50 was 695 nM.
